From PubChem BioAssay AID1347165 (National Center for Advancing Translational Sciences (NCATS), 2019)
Where “and” joins values, the source holds several entries; their conditions need not be identical. Equal entries are not always repeated. The list shows a part of the results, in another mix than the full data. Records with an inconclusive call do not appear. Calls of active or inactive are those of the source. The call rests on the fitted dose curve; in most records, active means well fitted inhibition curve with a large enough effect; inconclusive means small, poorly fitted or top-dose-only effect; inactive means no such curve, though single readings can be large or run the other way.

By UniProt entry, the sequences of proteins in these tests, tags left out.
UniProt Q9UGL1, whole entry: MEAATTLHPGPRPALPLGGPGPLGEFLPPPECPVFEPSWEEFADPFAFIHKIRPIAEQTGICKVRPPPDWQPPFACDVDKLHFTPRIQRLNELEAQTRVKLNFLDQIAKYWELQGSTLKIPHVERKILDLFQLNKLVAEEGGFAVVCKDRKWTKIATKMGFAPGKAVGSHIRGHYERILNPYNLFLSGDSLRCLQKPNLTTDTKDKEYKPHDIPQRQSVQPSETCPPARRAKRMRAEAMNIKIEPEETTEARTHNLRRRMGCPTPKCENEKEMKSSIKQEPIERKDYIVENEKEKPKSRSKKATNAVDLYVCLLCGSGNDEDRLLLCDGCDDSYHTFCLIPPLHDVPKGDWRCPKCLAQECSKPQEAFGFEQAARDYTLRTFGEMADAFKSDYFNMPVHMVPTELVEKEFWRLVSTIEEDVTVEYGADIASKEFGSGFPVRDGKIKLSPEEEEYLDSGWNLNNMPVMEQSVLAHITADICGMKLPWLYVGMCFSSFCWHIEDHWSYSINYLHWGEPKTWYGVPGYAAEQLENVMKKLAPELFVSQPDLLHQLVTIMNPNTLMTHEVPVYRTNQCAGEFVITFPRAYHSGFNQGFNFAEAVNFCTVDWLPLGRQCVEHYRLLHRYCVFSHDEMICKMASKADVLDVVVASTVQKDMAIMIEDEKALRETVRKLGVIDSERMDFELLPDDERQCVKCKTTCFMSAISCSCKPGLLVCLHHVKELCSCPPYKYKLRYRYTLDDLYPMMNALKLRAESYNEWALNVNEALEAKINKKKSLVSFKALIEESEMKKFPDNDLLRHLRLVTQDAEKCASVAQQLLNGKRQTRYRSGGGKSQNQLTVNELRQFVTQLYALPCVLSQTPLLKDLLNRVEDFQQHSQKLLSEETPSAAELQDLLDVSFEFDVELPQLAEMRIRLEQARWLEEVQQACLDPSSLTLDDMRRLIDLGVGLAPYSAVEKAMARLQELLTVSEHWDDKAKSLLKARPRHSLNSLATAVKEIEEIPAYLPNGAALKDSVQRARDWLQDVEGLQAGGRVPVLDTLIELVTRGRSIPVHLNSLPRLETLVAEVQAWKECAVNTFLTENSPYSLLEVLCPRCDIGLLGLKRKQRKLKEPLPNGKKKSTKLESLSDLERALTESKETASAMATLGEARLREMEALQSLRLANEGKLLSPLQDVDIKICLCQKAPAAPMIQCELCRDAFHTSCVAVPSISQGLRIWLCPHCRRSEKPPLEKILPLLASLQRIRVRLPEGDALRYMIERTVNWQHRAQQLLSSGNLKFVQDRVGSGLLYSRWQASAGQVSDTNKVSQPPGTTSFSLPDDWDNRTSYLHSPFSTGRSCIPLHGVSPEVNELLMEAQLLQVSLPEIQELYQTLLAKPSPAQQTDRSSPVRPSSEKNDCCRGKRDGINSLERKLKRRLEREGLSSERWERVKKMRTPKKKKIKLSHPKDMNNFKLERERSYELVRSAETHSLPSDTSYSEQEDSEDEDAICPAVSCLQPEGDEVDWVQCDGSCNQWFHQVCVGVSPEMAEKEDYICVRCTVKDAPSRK

biological target: Lysine-specific demethylase 5B (Homo sapiens) (UniProt Q9UGL1); test: Primary screen for KDM5B Histone Demethylases FDH-coupled qHTS; settings: FDH-coupled NADH fluorescence (FDH is formaldehyde dehydrogenase); at 57.7 µM (top of the series); further: 0% is about no effect; nearly all actives have a fitted effect of over 70% in size
Source text: Assay Submitter (PI): Qin Yan, Ph.D. (Yale University) and Xiaodong Cheng, Ph.D. (MD Anderson) This project was funded as part of the NCI NEXT Program and Chemical Biology Consortium (CBC) The histone demethylases, KDM5A and KDM5B catalyze the demethylation of lysine 4 on histone H3 (H3K4me3/2). They are overexpressed in a variety of cancers and have been implicated in cancer cell growth, metastasis, drug resistance, and tumor growth. KDM5A is amplified and overexpressed in breast and gastric cancer; and is translocated in leukemia. While KDM5B is highly expressed in human mammary tumors and breast cancer cell lines, but not in normal adult breast tissue. Moreover, knockdown of KDM5B leads to upregulation of tumor suppressor genes, including BRCA1. The goal of this project is to employ qHTS to identify selective small molecule inhibitors of KDM5A/B demethylase activity to better understand the role of KDM5 in cancer and to develop novel therapies. We employed an FDH-coupled assay previously reported by Sakurai et al. to monitor in vitro KDM5 demethylase activity. Compounds showing dose response inhibition are re-acquired, validated, and tested for non-specific interference with the formaldehyde dehydrogenase (FDH) counterscreen. True inhibitors are validated using an AlphaLisa secondary screen, which employs an H3K4(me2-1)-specific antibody to monitor demethylation of a biotin-tagged H3K4(me3) peptide substrate. Inhibitors are profiled against KDM4A and KDM6A AlphaLisa counterscreens to determine level of demethylase specificity; and against the TruHits counterscreen to eliminate non-specific inhibitory activity on the AlphaLISA detection method. Selective inhibitors identified from the primary and secondary screening are tested in cells using immunofluorescence to monitor global H3K4 tri-methylation as a measure of KDM5A/B inhibition. Early Translation Branch (ETB) National Center for Advancing Translational Sciences (NCATS), Rockville, MD National Institute of Health (NIH), Bethesda, Maryland [1] Sakurai, M et al. A miniaturized screen for inhibitors of Jumonji histone demethylases. Mol Biosyst. 2010 Feb;6(2):357-64. doi: 10.1039/b912993f. Epub 2009 Oct 8.
Materials: 1536-well Black, solid bottom, medium binding assay plate is purchased from Greiner Bio-one. The enzymes (KDM5B) and substrate (H3K4me3/2) are provided by the principal investigators. The buffer for this assay is composed of 50mM HEPES at pH 7.5 with 0.01% Tween-20. FDH coupled Demethylase qHTS protocol: Three microliter enzyme mix (buffer + 200nM KDM5BDeltaAP final concentration) is dispensed into the assay plate using the BioRAPTR Flying Reagent Dispenser (FRD; […]). Compound (at various final concentration) and control solution is pin transferred to the assay plate using the Kalypsys 1536-pin tool apparatus. The assay plate is incubated for 10 min at room temperature followed by addition of 1uL substrate mix (buffer + 100uM ascorbic acid, 50uM ferrous ammonium sulfate, 12.5uM H3K4Me3, 25uM a-ketoglutarate, 0.25 mM NAD+, 0.25 U/mL formaldehyde dehydrogenase using the FRD yielding a total reaction volume of 4 uL. Initial fluorescence (Read1) is detected using the PerkinElmer ViewLux plate reader equipped with 340 nm excitation and 450 nm emission filters. The final fluorescence (Read2) signal is obtained after 30 min of room temperature incubation. Delta RFU is calculated (Read2 - Read1) and is used to generated dose response curves.

Q: How did the activity change, negative = inhibition turn out when `CCOc1ccc(C(=O)NCC2(N3CCOCC3)CCCCC2)cc1` was run?
A: The activity change, negative = inhibition was inactive: -3%.

Q: How did the activity change, negative = inhibition turn out when `O=C(NCC1(N2CCOCC2)CCCCC1)c1cc2c(s1)CCCC2` was run?
A: The activity change, negative = inhibition was inactive: -15%.

Q: How did the activity change, negative = inhibition turn out when `CCc1cc(C(=O)NCC2(N3CCOCC3)CCCCC2)sc1C` was run?
A: The activity change, negative = inhibition was inactive: 2.58%.

Q: For `CCCOc1cccc(C(=O)NCC2(N(C)C)CCCCC2)c1`, which activity change, negative = inhibition is on record?
A: The activity change, negative = inhibition was inactive: -1.09%.

Q: Which activity change, negative = inhibition does the source give for `CCCOc1cccc(C(=O)NCC2(N3CCOCC3)CCCCC2)c1` here?
A: Its activity change, negative = inhibition is inactive: -16.7%.

Q: `O=C(NCC1(N2CCOCC2)CCCCC1)c1ccccc1Br` was tested. Which activity change, negative = inhibition did it give?
A: Its activity change, negative = inhibition is inactive: -2.77%.

Q: Which activity change, negative = inhibition does the source give for `CCCCOc1ccccc1C(=O)NCC1(N2CCOCC2)CCCCC1` here?
A: Its activity change, negative = inhibition is inactive: -11.4%.

Q: With `O=C(NCC1(N2CCOCC2)CCCCC1)c1c[nH]c2ccccc12` as the compound, how does the activity change, negative = inhibition read?
A: Its activity change, negative = inhibition is inactive: 3.93%.

Q: How did the activity change, negative = inhibition turn out when `O=C(NCC1(N2CCCCC2)CCCCC1)c1cncc(Br)c1` was run?
A: Its activity change, negative = inhibition is inactive: -19.6%.

Q: `COc1ccccc1C(=O)NCC1(N(C)C)CCCCC1` was tested. Which activity change, negative = inhibition did it give?
A: Its activity change, negative = inhibition is inactive: 24.6%.

Q: With `CC1CN(CCc2ccccc2)CCC1=O` (centres undefined) as the compound, how does the activity change, negative = inhibition read?
A: Its activity change, negative = inhibition is inactive: 2.93%.

Q: With `COc1ccccc1C(=O)NCC1(N2CCOCC2)CCCCC1` as the compound, how does the activity change, negative = inhibition read?
A: The activity change, negative = inhibition was inactive: -28.4%.

Q: How did the activity change, negative = inhibition turn out when `CN(C)C1(CNC(=O)c2nn(C)c(=O)c3ccccc23)CCCCC1` was run?
A: The activity change, negative = inhibition was inactive: -11.6%.

Q: With `O=C(NCC1(N2CCOCC2)CCCCC1)c1ccc(Cl)cc1` as the compound, how does the activity change, negative = inhibition read?
A: Its activity change, negative = inhibition is inactive: -13.2%.

Q: How did the activity change, negative = inhibition turn out when `Cc1ccc(C(C)CCN(CCCl)CCCl)cc1` (centres undefined) was run?
A: The activity change, negative = inhibition was inactive: 0.336%.

Q: Which activity change, negative = inhibition does the source give for `O=C(NCC1(N2CCCCC2)CCCCC1)c1c[nH]c2ccccc12` here?
A: Its activity change, negative = inhibition is inactive: 3.45%.

Q: For `CCCOc1ccccc1C(=O)NCC1(N2CCOCC2)CCCCC1`, which activity change, negative = inhibition is on record?
A: Its activity change, negative = inhibition is inactive: 9.3%.

Q: For `CN(C)C1(CNC(=O)c2cc3c(s2)CCC3)CCCCC1`, which activity change, negative = inhibition is on record?
A: The activity change, negative = inhibition was inactive: -29.5%.

Q: Which activity change, negative = inhibition does the source give for `CC1CN(CCc2ccccc2)C(C)CC1=O` (centres undefined) here?
A: The activity change, negative = inhibition was inactive: 18.7%.

Q: How did the activity change, negative = inhibition turn out when `CC(C)(C)c1ccc(C(=O)NCC2(N3CCOCC3)CCCCC2)cc1` was run?
A: Its activity change, negative = inhibition is inactive: -15.1%.

Q: With `Cc1ccccc1C(=O)NCC1(N(C)C)CCCCC1` as the compound, how does the activity change, negative = inhibition read?
A: The activity change, negative = inhibition was inactive: 6.03%.

Q: With `Cn1cc(C(=O)NCC2(N3CCOCC3)CCCCC2)c2ccccc21` as the compound, how does the activity change, negative = inhibition read?
A: Its activity change, negative = inhibition is inactive: -1.78%.

Q: How did the activity change, negative = inhibition turn out when `CCCOc1ccc(C(=O)NCC2(N(C)C)CCCCC2)cc1` was run?
A: The activity change, negative = inhibition was inactive: 28.4% and inactive: -8.69%.

Q: How did the activity change, negative = inhibition turn out when `CCCOc1ccccc1C(=O)NCC1(N(C)C)CCCCC1` was run?
A: Its activity change, negative = inhibition is inactive: 29.2%.

Q: For `Cc1ccc2oc(C(=O)NCC3(N4CCCCC4)CCCCC3)cc(=O)c2c1`, which activity change, negative = inhibition is on record?
A: The activity change, negative = inhibition was inactive: 14%.

Q: How did the activity change, negative = inhibition turn out when `COc1cc(C(=O)NCC2(N3CCOCC3)CCCCC2)cc(OC)c1OC` was run?
A: The activity change, negative = inhibition was inactive: 17%.

Q: For `O=C(NCC1(N2CCOCC2)CCCCC1)c1n[nH]c(=O)c2ccccc12`, which activity change, negative = inhibition is on record?
A: The activity change, negative = inhibition was inactive: 30.9%.

Q: For `Cn1nc(C(=O)NCC2(N3CCOCC3)CCCCC2)c2ccccc2c1=O`, which activity change, negative = inhibition is on record?
A: The activity change, negative = inhibition was inactive: 11%.

Q: With `Cc1cc(NC2CCN(Cc3ccccc3)CC2)ccc1Br` as the compound, how does the activity change, negative = inhibition read?
A: The activity change, negative = inhibition was inactive: 8.62%.

Q: Which activity change, negative = inhibition does the source give for `O=C(NCC1(N2CCCCC2)CCCCC1)c1n[nH]c(=O)c2ccccc12` here?
A: The activity change, negative = inhibition was inactive: -6.8%.

Q: `CC1C(=O)CCN(CCc2ccccc2)C1C` (centres undefined) was tested. Which activity change, negative = inhibition did it give?
A: Its activity change, negative = inhibition is inactive: 16.2%.

Q: Which activity change, negative = inhibition does the source give for `O=C(NCC1(N2CCOCC2)CCCCC1)c1ccc([N+](=O)[O-])cc1` here?
A: The activity change, negative = inhibition was inactive: -25.7%.

Q: With `O=C(NCC1(N2CCOCC2)CCCCC1)c1ccccc1[N+](=O)[O-]` as the compound, how does the activity change, negative = inhibition read?
A: Its activity change, negative = inhibition is inactive: -2.82%.

Q: How did the activity change, negative = inhibition turn out when `O=C(NCC1(N2CCOCC2)CCCCC1)c1ccccc1` was run?
A: Its activity change, negative = inhibition is inactive: -43.1%.
